{
  "source": "paper PMC12217461",
  "about": "“The emerging concern of IMP variants being resistant to the only IMP-type metallo-β-lactamase inhibitor, xeruborbactam” (Antimicrobial Agents and Chemotherapy, 2025)",
  "biological_target": "T1, NDM-1 S262G (Klebsiella pneumoniae, UniProt C7C422, S249G)",
  "T1 construct": "made in house; host or cells: E. coli TOP10 (crude extract)",
  "experiment": "IC50, inhibition of cephalothin hydrolysis",
  "assay_type": "biochemical",
  "details": "crude enzyme extract, 100 µM cephalothin, 3 min pre-incubation; read-out: IC50 against NDM-1 S262G",
  "data": [
    {"compound": "O=C(O)c1c(F)ccc2c1OB(O)[C@@H]1C[C@H]21", "note": "[xeruborbactam]", "values": [
      {"measurement": "IC50", "result": "> 200", "unit": "µM"}
    ]}
  ]
}
